According to PMC10449733, “Predicting [^177Lu]Lu-HA-DOTATATE kidney and tumor accumulation based on [^68Ga]Ga-HA-DOTATATE diagnostic imaging using semi-physiological population pharmacokinetic modeling” (EJNMMI Physics, 2023):

Experiment: Semi-physiological population PK model (six-compartment NLMEM, NONMEM) informed by patient imaging data
Format: in vivo, human
Conditions: estimated, FOCE-I
Procedure: In order to describe and compare differences in (population) PK between [^68Ga]Ga-HA-DOTATATE and [^177Lu]Lu-HA-DOTATATE, two semi-physiological nonlinear mixed-effects models (NLMEMs) with a similar model structure were developed. Using this approach, differences in population PK parameters between both radiopharmaceuticals were determined. First, a population PK model of [^68Ga]Ga-HA-DOTATATE was developed fully informed by a previously developed PBPK model. Subsequently, the model structure was applied to [^177Lu]Lu-HA-DOTATATE and parameters describing differences between both radiopharmaceuticals were estimated. Finally, both developed models were used to predict [^177Lu]Lu-HA-DOTATATE PK based on [^68Ga]Ga-HA-DOTATATE observations.
The first step of our approach was to develop a semi-physiological model for [^68Ga]Ga-HA-DOTATATE. Structural model development was informed based on a previously published PBPK model, where compartments were lumped based on their SSTR-expressing nature. […] Compartment five consisted of the lungs, pancreas, stomach, thyroid and liver. Structural model parameters were based on estimates from a previously published PBPK model. Organ volumes were fixed for all patients and derived from the ICRP Publication 89 adult human model. The tumor compartment volume was based on individual measured tumor volumes and consisted of the sum of volumes of all segmented tumors (based on).
The stochastic or statistical model accounted for inter-individual variability (IIV) and residual unexplained variability. For [^68Ga]Ga-HA-DOTATATE, IIV was added to uptake rate parameters. IIV was fixed based on assumed population variability, using information from ranges included in the previously developed PBPK model, assumed variability in uptake in organs and tumors based on clinical observations and estimated IIV in previously published population PK models for radiolabeled SSAs. IIV was modeled using an exponential distribution according to Eq. 2, while a proportional error model described the residual error according to Eq. 3.2 Pi=Ppop∗e^ηi 3 Cobs,ij=Cpred,ij∗(1+εp,ij) where Pi represents the individual PK parameter, Ppop represents the population PK parameter, and ηi represents the IIV effect for the ith individual with mean 0 and variance ω^2. Cobs represents the observed concentration and Cpred the predicted concentration for the ith individual and the jth measurement, and εp the proportional error with mean 0 and variance σ^2 for the ith individual and the jth measurement.
Factors known to affect PK parameters were added to the model a priori, since model development was based on fixed parameters rather than estimated based on data. […]

Substance: [^177Lu]Lu-HA-DOTATATE
- k13 (kidney uptake rate) fold difference compared to [^68Ga]Ga-HA-DOTATATE (NET patients, RSE 15%): 0.49 fold
- k14 (tumor uptake rate) fold difference compared to [^68Ga]Ga-HA-DOTATATE (nine NET patients, RSE 14%): 1.43 fold
- k12 (spleen uptake rate) fold difference compared to [^68Ga]Ga-HA-DOTATATE (nine NET patients, RSE 15%): 0.29 fold
- k40 (tumor degradation rate) fold difference compared to [^68Ga]Ga-HA-DOTATATE (nine NET patients, RSE 35%): 0.38 fold
